Measured values: PMC2574903 (Biochimica et biophysica acta, 2008)

Each molecule was assayed against T1, carboxylesterase activity of human THP-1 cell lysates (CES1) (Homo sapiens, UniProt P23141) (assay: biochemical).
T1 sequence (P23141 18-567): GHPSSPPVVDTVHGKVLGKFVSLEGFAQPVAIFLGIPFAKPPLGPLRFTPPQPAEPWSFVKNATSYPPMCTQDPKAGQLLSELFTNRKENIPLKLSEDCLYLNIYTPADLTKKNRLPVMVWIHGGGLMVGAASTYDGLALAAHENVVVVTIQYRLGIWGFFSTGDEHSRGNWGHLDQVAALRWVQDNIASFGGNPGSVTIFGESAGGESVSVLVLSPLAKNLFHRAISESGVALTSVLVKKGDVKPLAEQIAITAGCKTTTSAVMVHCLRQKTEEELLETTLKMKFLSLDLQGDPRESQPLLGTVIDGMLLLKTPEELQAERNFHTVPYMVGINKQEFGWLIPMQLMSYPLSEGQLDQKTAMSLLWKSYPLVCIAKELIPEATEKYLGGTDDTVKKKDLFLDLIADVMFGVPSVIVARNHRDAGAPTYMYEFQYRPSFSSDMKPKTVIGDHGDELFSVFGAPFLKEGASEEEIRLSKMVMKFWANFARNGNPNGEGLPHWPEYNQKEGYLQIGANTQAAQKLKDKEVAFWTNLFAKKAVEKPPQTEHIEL

Going from `COP(=O)(OC)Oc1ccc([N+](=O)[O-])cc1` [Methyl paraoxon] to `CCOP(=O)(OCC)Oc1ccc([N+](=O)[O-])cc1` [Paraoxon], the IC50 falls from 49 ± 12 nM to 0.29 ± 0.12 nM (170-fold).

Molecule `CCOP(=O)(OCC)Oc1nc(Cl)c(Cl)cc1Cl` [Chlorpyrifos oxon] has an IC50 of 0.21 ± 0.03 nM.
